{
  "source": "patent US20030073731A1",
  "about": "“Compositions and methods of the use thereof achiral analogues of CC-1065 and the duocarmycins” (priority 2000, published 2003)",
  "test_system": "NCI-H332M",
  "assay": "NCI in-vitro cytotoxicity screen, Non-Small Cell Lung Cancer panel",
  "settings": "read-out: LC50; NCI-H32M",
  "data": [
    {"smiles": "COC(=O)c1[nH]c2c(O)cc(NC(=O)c3cc4cc(OC)c(OC)c(OC)c4[nH]3)c(CCCl)c2c1C(=O)OC", "note": "[Compound 22, Dimethyl 4-(2-chloroethyl)-7-hydroxy-5-(5,6,7-trimethoxyindole-2-carboxamido)indole-2,3-dicarboxylate]", "values": [
      {"measurement": "CC50", "result": "< 50", "unit": "µM"}
    ]}
  ]
}
